# In PMC3196593 (Journal of medicinal chemistry, 2011):
# Test system: HL-60 cells
# Assay: Cytotoxicity in combination with doxorubicin
# Format: cell-based, human
# Settings: 1 μM of PAD inhibitor
smiles,measurement,value
"N=C(CCl)NCCC[C@H](NC(=O)c1ccccc1)C(N)=O.O=C(O)C(F)(F)F [Compound 1, Cl-amidine]",decrease in the EC50 for doxorubicin,~ 2 fold
